Test results taken from DBAASP.

Tests used:
[1] = test system: Staphylococcus aureus ATCC 12600; test: ≥ marks a high value that may be exact or a test limit, other limits are often not marked, values filed in µg/mL are converted to µM
[2] = test system: Escherichia coli K-12; test: as above

SMILES | MIC [1] [µM] | MIC [2] [µM]
CC(C)C[C@H](NC(=O)[C@@H](NC(=O)[C@H](C)NC(=O)CNC(=O)[C@H](Cc1c[nH]c2ccccc12)NC(=O)[C@H](CC(N)=O)NC(=O)[C@@H](N)CC(C)C)C(C)C)C(=O)N[C@@H](CCCCN)C(=O)N[C@@H](Cc1cnc[nH]1)C(=O)N[C@H](C(=O)N[C@H](C(=O)N[C@@H](CCCCN)C(=O)O)C(C)C)C(C)C [LNWGAVLKHVVK] | ≥ 128 | ≥ 64
CC(C)C[C@H](NC(=O)[C@H](CC(C)C)NC(=O)[C@H](CC(N)=O)NC(=O)[C@H](CC(N)=O)NC(=O)[C@H](CC(C)C)NC(=O)[C@@H](N)C(C)C)C(=O)N[C@@H](CCCN=C(N)N)C(=O)O [VLNNLLR] | ≥ 128 | 
